The record followed here is doi:10.1101/287003 (bioRxiv, 2018).

Test [1] addresses tau peptide A6897 (residues 299-369) (human, UniProt P10636-8, biotin (position not given)). Kind of test: ELISA.
For test [2], the target named is T1, tau peptide 2833-1 (residues 299-318) (human).
T1 chain: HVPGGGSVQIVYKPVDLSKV
Kind of test: crystal structure.

The target of test [3] is tau peptide W1805 (residues 52-71) (human, C-terminal amide). Kind of test: crystal structure.
Test [4] addresses tau peptide A6940 (residues 42-103) (human, UniProt P10636-8, biotin (position not given)). Description: ELISA. (In general: In an ELISA, binding on a coated surface is turned into a signal by an enzyme label.)

B1: CBTAU-27.1 (antibody, V domains shown)
VH: QVQLVESGPEMRKPGESLKISCKTSGYIFSDYWTAWVRQLPGKGLQWMGIIYSGDSDTRYHPSVQGHVTMSTDSSLTTAYLQWSSLKASDTGIYYCARLDARVDAGWQLDSWGQGTLVTVSS
VL: DIQLTQSPDSLAVSLGERATINCKSSQSVFSRDNNKNYLAWYQHKSGQPPKLLFFWASSRESGVSDRFSGSGSGTDFTLTIDNLQAEDVALYYCQHYFNTPHNFGQGTKLEIK
With B1, in test [1], the binding result is listed as “binds”.

B2: CBTAU-27.1 Fab (Fab, V domains shown)
VH: B1 VH
VL: B1 VL
For B2, the binding result in test [2] is “binds”.

B3: CBTAU-28.1 Fab (Fab, V domains shown)
VH: QVQLQQSGAEVKKPGESLKISCEASGYSFTNYWIGWVRQMPGKGLEWMGIIYPGDSDTRYSPPFQGQVTITADRSITTAYLEWSSLKASDTAMYYCARVGRPSKGGWFDPWGQGTLVTVSS
VL: DIQMTQSPDSLAVSLGERATINCESSQTLLYSSNEKNYLAWYQQKPGQPPKLLISWASTPESGVPDRFSGSGSGTSFTLTISSLQAEDVAVYYCQQYYNSPYTFGQGTRLEIK
Consider B3, for which the binding result in test [3] is “binds”.

B4: CBTAU-28.1 (antibody, V domains shown)
VH: B3 VH
VL: B3 VL
Consider B4, for which the binding result in test [4] is reported as “binds”.
